# Apparent affinities of Ab-14 variants for a coronavirus HR2 peptide

Reference: Li et al. 2023, doi:10.1038/s41467-023-39022-2. File: FLAb, binding data.

Antigen: PDVDLGDISGINAS, a 14-residue peptide of the SARS-CoV-2 spike HR2 region.

Parent: Ab-14, a human scFv built as VH, a 15-residue (Gly4Ser)3 linker, VL. Only the CDRs of the heavy chain vary.
VH: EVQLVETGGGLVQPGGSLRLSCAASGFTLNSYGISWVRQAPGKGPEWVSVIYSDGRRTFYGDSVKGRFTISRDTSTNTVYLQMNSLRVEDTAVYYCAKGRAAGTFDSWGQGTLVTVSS
VL: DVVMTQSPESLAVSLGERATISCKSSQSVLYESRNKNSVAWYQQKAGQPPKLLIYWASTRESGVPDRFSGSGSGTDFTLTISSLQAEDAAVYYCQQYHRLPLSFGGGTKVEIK

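These sequences belong to a second round, designed from the earlier measurements on random variants of the parent. Group labels follow the data file (Ctrl: baseline library sampled from a position-specific scoring matrix, with some repeated check sequences; Rand: our label for a block that the file lists under HC and that is probably the random mutants of the ten best first-round binders; GP: Gaussian process model; GPLM: also part of the Gaussian process libraries; HC: hill climbing; Gen: genetic algorithm; Gibbs: Gibbs sampling; a sequence that several methods proposed may carry one label only). The assay is AlphaSeq: two haploid yeast populations carry antibody and antigen on their surface. Binding brings cells together so that they mate, and sequencing counts the barcode pairs among the diploids. Read counts were normalised to the haploid input and turned into Kd by a linear fit to BCL2-family pairs of known affinity, for each replicate. The assay was run in six technical replicates.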

Substitutions are numbered in sequence along the VH above, starting at 1 (not Kabat). Variants here have at most six changes. Numbers give log10(Kd / nM), so 0 is 1 nM and 3 is 1 µM. Smaller is tighter. Averages over replicates are reported, and they cover detected replicates only. "ND" marks a missing value. The strain was present, yet no cells mated with the target were sequenced in that replicate, which points to weak or no binding. The range of this assay differs from that of the first round, and the authors advise against merging the two. Empty control strains, which show no peptide, gave a signal in 1% of pairings with all heavy chain designs; the median was 2.08 and 95% of these signals were weaker than 0.84. No background was subtracted. Also given: how often the same scFv was detected with the empty control strains. Where one sequence has several entries in the source, the replicates are listed entry by entry, parted by semicolons. In the paper, a design with two or fewer of six values counts as a poor binder.

The variant T28S S31E A101W [GPLM_Gen] gave 0.43, 0.25, 0.17, 0.17, 0.26, 0.11 (mean 0.23; controls 1 of 18). The variant T28D S63N R100Q A101E [GP_Gibbs] showed ND, 1.30, ND, ND, 1.02, 0.53 (mean 0.95; controls 0 of 18). With T28S G61S R100M A101T [GPLM_Gen] the result was -0.08, 0.01, -0.23, 0.13, 0.26, 0.46 (mean 0.09; controls 0 of 18). The variant G61S R100V A102G S107I [GP_HC] showed ND, 1.53, ND, ND, ND, ND (controls 0 of 18). The variant F59A A102T F105K [Ctrl] showed ND, ND, ND, ND, ND, ND (controls 0 of 18).

For T28D A101N [Ctrl+GPLM_Gen], the assay gave 3.02, -0.34, 1.28, 0.94, ND, 0.38; 0.24, 0.39, 0.09, -0.07, 0.13, -0.05 (mean 0.55; controls 0 of 36). For F27P S31E S53V R56H G103V S107Q [Rand], the assay gave -0.17, 0.48, 1.01, 0.01, 0.04, 0.12 (mean 0.25; controls 0 of 18). The variant T28N G103V T104G S107Q [Ctrl] showed ND, ND, ND, ND, ND, ND (controls 0 of 18). For N30K G61T R100K A101L [GP_HC], the assay gave ND, 2.00, 2.50, 2.24, ND, ND (mean 2.25; controls 0 of 18). With S31E S53A G61S [Ctrl] the result was 0.98, 1.13, 1.12, 0.28, 0.85, 1.03 (mean 0.90; controls 0 of 18).

The variant R56Q G61H K65E R100Y D106K S107C [Ctrl] showed ND, ND, ND, ND, ND, ND (controls 0 of 18). The variant T28S S31E G61V R100P S107R [GP_HC] showed ND, ND, ND, ND, 0.66, ND (controls 0 of 18). The variant S53A R100E A101T S107V [GP_Gibbs] gave -0.24, -0.25, -0.26, -0.37, -0.32, -0.16 (mean -0.27; controls 0 of 18). For T28N R56Q [Ctrl], the assay gave ND, ND, 0.95, 0.98, 0.28, 1.04 (mean 0.81; controls 0 of 18). With T28R R100Q A101L [GP_HC] the result was ND, ND, ND, ND, ND, ND (controls 0 of 18).

For T28D G61V R100N A101T [GP_Gen], the assay gave 0.04, -0.11, 0.05, -0.30, -0.06, -0.12 (mean -0.08; controls 0 of 18). For I51M T104G [Ctrl], the assay gave ND, ND, ND, ND, ND, ND (controls 0 of 18). For F59C [Ctrl], the assay gave ND, ND, ND, ND, ND, ND (controls 0 of 18). The variant T28E S63M R100Q A101T [GP_Gibbs] gave ND, ND, ND, ND, ND, ND (controls 0 of 18). With S31K G61S A101V D106S [Ctrl] the result was 2.05, 0.78, ND, ND, 3.18, ND (mean 2.00; controls 0 of 18).

The variant T28D S31E S63R A101T [GP_Gibbs] gave 0.68, 0.21, 1.17, 1.67, -0.02, 0.25 (mean 0.66; controls 0 of 18). The variant R100Q A101L S107L [GP_Gibbs] showed ND, 0.53, 0.96, 1.45, 0.93, 0.93 (mean 0.96; controls 1 of 18). The variant K65R G103L T104A [Ctrl] showed ND, ND, ND, ND, 1.81, ND (controls 0 of 18). The variant T28V Y32Q [Ctrl] gave 0.29, 0.13, 1.29, 0.21, 0.00, 1.01 (mean 0.49; controls 0 of 18). For T28W S31D G61A S107A [GP_HC], the assay gave 0.77, 0.65, ND, 0.72, 0.30, 0.92 (mean 0.67; controls 0 of 18).

For T28N G61A S63D R100N [GP_Gen], the assay gave ND, 2.31, 3.27, 1.56, 2.12, 2.14 (mean 2.28; controls 0 of 18). With S31E D106E S107Q [GPLM_HC] the result was 0.77, 0.25, -0.08, 0.77, 0.04, 0.97 (mean 0.45; controls 1 of 18). The variant S31E G61T D106V [GP_HC] showed ND, ND, ND, ND, ND, 1.66 (controls 0 of 18). The variant G61S R100A A102V [GP_HC] gave ND, ND, ND, ND, ND, ND (controls 0 of 18). For G26T I34V G61T T104P S107T [Ctrl], the assay gave ND, ND, ND, ND, ND, ND (controls 0 of 18).

The variant S31E G61V D62C G103V S107Q [Rand] showed ND, ND, ND, ND, ND, ND (controls 0 of 18). For G61I R100H S107F [GP_Gibbs], the assay gave ND, ND, ND, ND, ND, ND (controls 0 of 18). For F27Q R56Q T104R [Ctrl], the assay gave ND, ND, ND, ND, ND, ND (controls 0 of 18). The variant T28E A101M S107T [GPLM_Gibbs] gave ND, 1.60, ND, 1.73, 2.47, ND (mean 1.93; controls 0 of 18). The variant T28N A101N S107T [GPLM_Gibbs] gave 0.56, 0.85, 0.53, 0.81, 0.68, 0.99 (mean 0.74; controls 0 of 18).

For T28Q G61A R100T [GPLM_Gen], the assay gave 1.16, 0.89, 0.92, 0.64, -0.12, 1.61 (mean 0.85; controls 0 of 18).

Excerpt, the first 3 entries:

The variant T28S S31E A101W [GPLM_Gen] gave 0.43, 0.25, 0.17, 0.17, 0.26, 0.11 (mean 0.23; controls 1 of 18).
The variant T28D S63N R100Q A101E [GP_Gibbs] gave ND, 1.30, ND, ND, 1.02, 0.53 (mean 0.95; controls 0 of 18).
The variant T28S G61S R100M A101T [GPLM_Gen] gave -0.08, 0.01, -0.23, 0.13, 0.26, 0.46 (mean 0.09; controls 0 of 18).